What follows are compounds tested against FLAG-tagged PDE2A1 (amino acids 2-941) (Homo sapiens (Human), UniProt O00408) (assay: IMAP TR-FRET PDE2A phosphodiesterase enzymatic assay). Conditions: not given.

Protein sequences, listed by entry. Tags and fused reporters are not part of them. Residues count along the entry.
UniProt O00408, 2-941: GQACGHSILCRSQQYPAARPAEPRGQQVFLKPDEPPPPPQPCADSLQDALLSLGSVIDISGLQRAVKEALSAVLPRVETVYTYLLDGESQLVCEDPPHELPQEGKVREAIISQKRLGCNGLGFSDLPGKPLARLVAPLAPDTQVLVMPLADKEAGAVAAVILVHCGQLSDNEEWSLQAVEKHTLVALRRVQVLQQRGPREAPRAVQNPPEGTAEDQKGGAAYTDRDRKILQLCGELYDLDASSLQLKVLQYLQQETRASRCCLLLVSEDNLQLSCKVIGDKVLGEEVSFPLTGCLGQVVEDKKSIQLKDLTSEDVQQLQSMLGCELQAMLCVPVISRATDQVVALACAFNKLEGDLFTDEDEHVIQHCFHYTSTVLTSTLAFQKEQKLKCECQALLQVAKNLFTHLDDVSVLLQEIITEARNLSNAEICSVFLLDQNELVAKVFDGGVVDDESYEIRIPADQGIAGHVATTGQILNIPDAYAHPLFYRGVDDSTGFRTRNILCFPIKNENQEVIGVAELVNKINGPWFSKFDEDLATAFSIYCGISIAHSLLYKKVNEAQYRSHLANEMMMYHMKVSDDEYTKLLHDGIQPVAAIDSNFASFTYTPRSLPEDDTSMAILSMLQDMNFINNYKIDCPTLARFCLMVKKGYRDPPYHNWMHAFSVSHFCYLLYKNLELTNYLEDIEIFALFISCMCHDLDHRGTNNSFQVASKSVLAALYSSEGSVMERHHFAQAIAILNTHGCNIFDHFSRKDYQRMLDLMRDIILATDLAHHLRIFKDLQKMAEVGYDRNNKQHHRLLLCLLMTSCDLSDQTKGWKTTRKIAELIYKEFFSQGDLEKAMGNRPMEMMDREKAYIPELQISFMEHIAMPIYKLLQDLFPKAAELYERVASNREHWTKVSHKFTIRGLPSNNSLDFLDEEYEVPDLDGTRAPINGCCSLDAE

Structure (SMILES) | IC50
Cc1cc(C2CN(C(=O)C3COc4ccccc4C3)CCO2)n2ncnc2n1 (centres unmarked) [Example 359, 4-[(3,4-Dihydro-2H-1-benzopyran-3-yl)carbonyl]-2-{5-methyl-[1,2,4]triazolo[1,5-a]pyrimidin-7-yl}morpholine] | 100 to 1000 nM
Cc1cc(C2CCCN(C(=O)c3ccccn3)C2)n2ncnc2n1 (centres unmarked) [Example 395, 2-[(3-{5-Methyl-[1,2,4]triazolo[1,5-a]pyrimidin-7-yl}piperidin-1-yl)carbonyl]pyridine] | > 10000 nM
Cc1cc(C2CCCN(Cc3ccc(Br)cc3Cl)C2)n2ncnc2n1 (centres unmarked) [Example 152, 1-[(4-Bromo-2-chlorophenyl)methyl]-3-{5-methyl-[1,2,4]triazolo[1,5-a]pyrimidin-7-yl}piperidine] | 1000 to 10000 nM
COc1cccc(C(=O)N2CCCC(c3cc(C)nc4ncnn34)C2)c1C (centres unmarked) [Example 422, 1-[(3-Methoxy-2-methylphenyl)carbonyl]-3-{5-methyl-[1,2,4]triazolo[1,5-a]pyrimidin-7-yl}piperidine] | 1000 to 10000 nM
Cc1cc(C2CN(C(=O)c3cc(C)n(-c4ccc(C(C)C)cc4)n3)CCO2)n2ncnc2n1 (centres unmarked) [Example 347, 4-{5-Methyl-1-[4-(propan-2-yl)phenyl]-1H-pyrazole-3-carbonyl}-2-{5-methyl-[1,2,4]triazolo[1,5-a]pyrimidin-7-yl}morpholine] | 1000 to 10000 nM
COc1ccc(CN2CCCC(c3cc(C)nc4ncnn34)C2)c(C)c1 (centres unmarked) [Example 85, 1-[(4-Methoxy-2-methylphenyl)methyl]-3-{5-methyl-[1,2,4]triazolo[1,5-a]pyrimidin-7-yl}piperidine] | > 10000 nM
Cc1cc(C2CN(C(=O)c3cccc(F)c3)CC(F)(F)C2)n2ncnc2n1 (centres unmarked) [Example 245, 3,3-Difluoro-1-[(3-fluorophenyl)carbonyl]-5-{5-methyl-[1,2,4]triazolo[1,5-a]pyrimidin-7-yl}piperidine] | 100 to 1000 nM
Cc1cc(C2CCCN(Cc3cccc4[nH]ccc34)C2)n2ncnc2n1 (centres unmarked) [Example 87, 4-[(3-{5-Methyl-[1,2,4]triazolo[1,5-a]pyrimidin-7-yl}piperidin-1-yl)methyl]-1H-indole] | > 10000 nM
Cc1cc([C@@H]2CN(C(=O)c3ccc(OC(C)C)c(C)c3)CCO2)n2ncnc2n1 [Example 284, (2S)-4-[3-Methyl-4-(propan-2-yloxy)benzoyl]-2-{5-methyl-[1,2,4]triazolo[1,5-a]pyrimidin-7-yl}morpholine] | > 10000 nM
Cc1cc(C2CCCN(Cc3nc(C)c(Br)s3)C2)n2ncnc2n1 (centres unmarked) [Example 205, 1-[(5-Bromo-4-methyl-1,3-thiazol-2-yl)methyl]-3-{5-methyl-[1,2,4]triazolo[1,5-a]pyrimidin-7-yl}piperidine] | 100 to 1000 nM
Cc1cc(C2CCCN(C(=O)c3cc(-c4ccccc4)n(C)n3)C2)n2ncnc2n1 (centres unmarked) [Example 430, 1-[(1-Methyl-5-phenyl-1H-pyrazol-3-yl)carbonyl]-3-{5-methyl-[1,2,4]triazolo[1,5-a]pyrimidin-7-yl}piperidine] | 100 to 1000 nM
Cc1cc([C@H]2CN(C(=O)c3ccc(C4CC4)c(F)c3F)CCO2)n2ncnc2n1 [Example 326, (2R)-4-(4-Cyclopropyl-2,3-difluorobenzoyl)-2-{5-methyl-[1,2,4]triazolo[1,5-a]pyrimidin-7-yl}morpholine] | 1000 to 10000 nM
Cc1cc([C@@H]2CN(C(=O)c3cc(F)c(F)c(C4CC4)c3)CCO2)n2ncnc2n1 [Example 320, (2S)-4-(3-Cyclopropyl-4,5-difluorobenzoyl)-2-{5-methyl-[1,2,4]triazolo[1,5-a]pyrimidin-7-yl}morpholine] | 100 to 1000 nM

Same assay, conditions: IMAP TR-FRET, 200 nM FAM-cAMP substrate, 11-point half-log dose-response

Structure (SMILES) | PDE2 (pIC50)
Cc1cc([C@@H]2CN(C(=O)c3cccc(Br)c3)CCO2)n2ncnc2n1 [Example 253, (2S)-4-[(3-Bromophenyl)carbonyl]-2-{5-methyl-[1,2,4]triazolo[1,5-a]pyrimidin-7-yl}morpholine] | >7
Cc1cc(C2CCCN(C(=O)c3cc4ccccc4n3C)C2)n2ncnc2n1 (centres unmarked) [Example 465, 1-Methyl-2-[(3-{5-methyl-[1,2,4]triazolo[1,5-a]pyrimidin-7-yl}piperidin-1-yl)carbonyl]-1H-indole] | >7
Cc1cc(C2CCCN(Cc3ccc(Br)c(Cl)c3)C2)n2ncnc2n1 (centres unmarked) [Example 150, 1-[(4-Bromo-3-chlorophenyl)methyl]-3-{5-methyl-[1,2,4]triazolo[1,5-a]pyrimidin-7-yl}piperidine] | >7
Cc1cc(C2CN(C(=O)c3cc(-c4ccccc4)nn3C)CCO2)n2ncnc2n1 (centres unmarked) [Example 558, 4-(1-Methyl-3-phenyl-1H-pyrazole-5-carbonyl)-2-{5-methyl-[1,2,4]triazolo[1,5-a]pyrimidin-7-yl}morpholine] | >7
Cc1cc(C2CN(C(=O)c3cnc4ccccc4n3)CC(F)(F)C2)n2ncnc2n1 (centres unmarked) [Example 508, 2-(3,3-Difluoro-5-{5-methyl-[1,2,4]triazolo[1,5-a]pyrimidin-7-yl}piperidine-1-carbonyl)quinoxaline] | >7
Cc1cc(C2CN(C(=O)C3CCc4ccccc4O3)CC(F)(F)C2)n2ncnc2n1 (centres unmarked) [Example 563, 1-(3,4-Dihydro-2H-1-benzopyran-2-carbonyl)-3,3-difluoro-5-{5-methyl-[1,2,4]triazolo[1,5-a]pyrimidin-7-yl}piperidine] | >7
Cc1cc(C2CN(C(=O)c3ccc4c(c3)CCCC4)CC(F)(F)C2)n2ncnc2n1 (centres unmarked) [Example 501, 3,3-Difluoro-5-{5-methyl-[1,2,4]triazolo[1,5-a]pyrimidin-7-yl}-1-(5,6,7,8-tetrahydronaphthalene-2-carbonyl)piperidine] | >7
Cc1cc([C@@H]2CN(C(=O)c3ccc(C4CC4)c(Cl)c3)CC(F)(F)C2)n2ncnc2n1 [Example 331, (5S)-1-(3-Chloro-4-cyclopropylbenzoyl)-3,3-difluoro-5-{5-methyl-[1,2,4]triazolo[1,5-a]pyrimidin-7-yl}piperidine] | >7
Cc1cc(C2CCCN(C(=O)c3ccc(-c4ccccc4)cc3)C2)n2ncnc2n1 (centres unmarked) [Example 493, 3-{5-Methyl-[1,2,4]triazolo[1,5-a]pyrimidin-7-yl}-1-[(4-phenylphenyl)carbonyl]piperidine] | >7
Cc1cc(C2CCCN(C(=O)c3ccc4c(c3)CCO4)C2)n2ncnc2n1 (centres unmarked) [Example 207, 1-[(2,3-Dihydro-1-benzofuran-5-yl)carbonyl]-3-{5-methyl-[1,2,4]triazolo[1,5-a]pyrimidin-7-yl}piperidine] | >7
Cc1cc(C2CN(C(=O)c3cccc(I)c3)CCO2)n2ncnc2n1 (centres unmarked) [Example 209, 4-[(3-Iodophenyl)carbonyl]-2-{5-methyl-[1,2,4]triazolo[1,5-a]pyrimidin-7-yl}morpholine] | >7
Cc1cc(C2CCCN(C(=O)c3ccc4c(c3)CCCC4)C2)n2ncnc2n1 (centres unmarked) [Example 424, 3-{5-Methyl-[1,2,4]triazolo[1,5-a]pyrimidin-7-yl}-1-[(5,6,7,8-tetrahydronaphthalen-2-yl)carbonyl]piperidine] | >7
Cc1cc(C2CN(C(=O)C3CCc4cc(F)ccc4O3)CC(F)(F)C2)n2ncnc2n1 (centres unmarked) [Example 562, 3,3-Difluoro-1-(6-fluoro-3,4-dihydro-2H-1-benzopyran-2-carbonyl)-5-{5-methyl-[1,2,4]triazolo[1,5-a]pyrimidin-7-yl}piperidine] | >7

From patent US11186582B2, “Substituted [1,2,4]triazolo[1,5-a]pyrimidin-7-yl compounds as PDE2 inhibitors” (DART NEUROSCIENCE (CAYMAN) LTD., priority 2014, dated 2021)
